Assay results published in patent US20240024488A1, “COMPOUNDS AND USES THEREOF” (Foghorn Therapeutics Inc., priority 2020, published 2024).

The chains behind the UniProt entries cited, without tags or fusion partners.
UniProt P51532, whole entry: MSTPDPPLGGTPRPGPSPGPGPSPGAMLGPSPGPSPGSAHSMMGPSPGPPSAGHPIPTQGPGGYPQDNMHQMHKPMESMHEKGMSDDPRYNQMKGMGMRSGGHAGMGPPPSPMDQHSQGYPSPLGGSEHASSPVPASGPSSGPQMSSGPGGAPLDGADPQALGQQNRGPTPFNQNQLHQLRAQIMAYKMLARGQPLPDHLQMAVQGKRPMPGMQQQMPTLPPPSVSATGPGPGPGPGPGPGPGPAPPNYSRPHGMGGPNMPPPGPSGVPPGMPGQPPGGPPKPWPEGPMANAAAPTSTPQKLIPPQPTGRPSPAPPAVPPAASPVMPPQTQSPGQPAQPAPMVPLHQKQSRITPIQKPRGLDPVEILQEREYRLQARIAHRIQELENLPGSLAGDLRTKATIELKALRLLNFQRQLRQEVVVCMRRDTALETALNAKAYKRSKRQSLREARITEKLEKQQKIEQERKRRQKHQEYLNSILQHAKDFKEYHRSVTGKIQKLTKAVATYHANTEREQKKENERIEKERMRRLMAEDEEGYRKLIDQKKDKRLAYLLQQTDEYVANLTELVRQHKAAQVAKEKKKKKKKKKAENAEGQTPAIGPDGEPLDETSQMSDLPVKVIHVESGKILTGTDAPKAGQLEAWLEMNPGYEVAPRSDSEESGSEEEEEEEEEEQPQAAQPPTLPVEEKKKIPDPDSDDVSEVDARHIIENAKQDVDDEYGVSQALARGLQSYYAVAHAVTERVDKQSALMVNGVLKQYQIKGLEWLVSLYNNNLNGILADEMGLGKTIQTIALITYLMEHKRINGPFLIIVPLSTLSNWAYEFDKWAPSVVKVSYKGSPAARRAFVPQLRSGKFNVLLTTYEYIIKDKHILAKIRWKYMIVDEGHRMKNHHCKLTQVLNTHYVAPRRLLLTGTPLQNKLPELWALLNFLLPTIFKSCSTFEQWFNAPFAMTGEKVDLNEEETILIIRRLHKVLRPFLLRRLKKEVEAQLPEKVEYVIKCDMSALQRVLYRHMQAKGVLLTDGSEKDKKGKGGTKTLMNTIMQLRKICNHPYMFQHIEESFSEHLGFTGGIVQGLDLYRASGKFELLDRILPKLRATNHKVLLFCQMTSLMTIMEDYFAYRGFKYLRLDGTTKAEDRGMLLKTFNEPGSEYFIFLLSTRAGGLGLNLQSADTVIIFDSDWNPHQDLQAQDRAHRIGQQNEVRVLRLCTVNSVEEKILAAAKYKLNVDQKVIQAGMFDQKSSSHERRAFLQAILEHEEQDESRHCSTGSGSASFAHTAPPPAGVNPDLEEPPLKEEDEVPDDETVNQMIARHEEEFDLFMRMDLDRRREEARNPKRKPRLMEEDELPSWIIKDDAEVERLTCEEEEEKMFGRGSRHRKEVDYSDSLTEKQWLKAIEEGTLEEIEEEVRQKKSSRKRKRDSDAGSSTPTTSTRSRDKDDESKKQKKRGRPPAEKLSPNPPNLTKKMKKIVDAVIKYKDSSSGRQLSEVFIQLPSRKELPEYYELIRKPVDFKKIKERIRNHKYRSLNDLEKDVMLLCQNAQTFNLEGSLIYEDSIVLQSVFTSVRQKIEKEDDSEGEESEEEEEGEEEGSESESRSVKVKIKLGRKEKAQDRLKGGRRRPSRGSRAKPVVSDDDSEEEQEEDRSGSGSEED

Target: T1, HiBit-BRG1 fusion protein (Homo sapiens, UniProt P51532)
T1 construct: expressed in transfected cells
Assay: HiBiT-BRG1 cell-based degradation assay (Nano-Glo HiBiT Lytic Detection, 24 h)
Settings: HeLa cell line expressing HiBit-BRG1 and LgBit, read-out: BRG1 HiBit Degradation Maximum (%)
Description: Procedure: A stable HeLa cell line expressing HiBiT-BRM was generated. On day 0, 5000 cells were seeded in 40 μL of media into each well of 384-well cell culture plates. […] Subsequently plates were incubated for 24 h in a standard tissue culture incubator and equilibrated at room temperature for 15 minutes. Nano-Glo HiBiT Lytic Detection System (Promega N3050) reagent was freshly prepared and 20 ul was added to each well. Upon addition of this LgBit-containing reagent, the HiBiT and LgBiT proteins associate to form the luminescent NanoBiT luciferase. The plates were shaken for 10 minutes at room temperature and the bioluminescence read using an EnVision plate reader (PerkinElmer).
For measurement of BRG1 degradation, a stable HeLa cell line expressing HiBit-BRG1 and LgBit was generated. The same protocol as above was then followed.
The degradation % was calculated using the following formula: % degradation=100%−100%×(LumSample−LumLC)/(LumHC−LumLC). DMSO treated cells are employed as High Control (HC) and 2 μM of a known BRM/BRG1 degrader standard treated cells are employed as Low Control (LC).

For `Cc1ncsc1-c1ccc([C@H](C)NC(=O)[C@@H]2C[C@@H](O)CN2C(=O)[C@H](c2cc(OCCN3CC(c4cc5cc(-c6ccccc6O)nnc5[nH]4)C3)no2)C(C)C)cc1` (racemic) [Compound 62, (2S,4R)-4-hydroxy-1-((S)-2-(3-(2-(3-(3-(2-hydroxyphenyl)-7H-pyrrolo[2,3-c]pyridazin-6-yl)azetidin-1-yl)ethoxy)isoxazol-5-yl)-3-methylbutanoyl)-N-((S)-1-(4-(4-methylthiazol-5-yl)phenyl)ethyl)pyrrolidine-2-carboxamide], the Dmax was less than 50%.
